The values below come from patent publication US20170056496A1 (Sanofi, priority 2008, published 2017).

The assay deals with human Burkitt's lymphoma Namalwa. Nature of the assay: Antitumor efficacy against advanced human Burkitt's lymphoma Namalwa implanted in SCID mice.
The mark [1] stands for this setting: hu38SB19 alone, IV, 40.0 mg/kg/inj (total 120.0), twice a week day 11-18.
Where [2] appears, read: CPA alone, IV day 11, 15, 68.2 mg/kg/inj (total 136.4).
Where [3] appears, read: CPA alone, IV day 11, 15, 110.0 mg/kg/inj (total 220.0).

“hu38SB19: humanized anti-CD38 monoclonal antibody 38SB19; VH SEQ ID NO: 66, VL chosen from SEQ ID NOS: 62 and 64”: the “Comments: antitumor activity rating” value (hu38SB19 alone, IV, 40.0 mg/kg/inj (total 120.0), highest dose tested) is listed as “not active”. Further, under setting [1], the “T-C in days (1000 mg), tumor growth delay” value (“T-C in days (1000 mg)” below) is given as 2.5 days; the “log10 cell kill gross” value worked out at 0.4; the “log10 cell kill net” value is given as −0.9.
`O=P1(N(CCCl)CCCl)NCCCO1` (stereo not shown) [cyclophosphamide]: under setting [2], the “Comments: antitumor activity rating” value is “Active”; the “T-C in days (1000 mg)” value is recorded as 9.8 days; the “log10 cell kill gross” value is reported as 1.6; the “log10 cell kill net” value came out at 0.8. Moreover, under setting [3], the “Comments: antitumor activity rating” value is “Highly active”; the “T-C in days (1000 mg)” value came out at 19.8 days; the “log10 cell kill gross” value stood at 3.1; the “log10 cell kill net” value was found to be 2.3. In addition, the “T-C in days (1000 mg)” value (CPA alone, IV day 11, 15, […] (total 354.8)) turned out to be 30.1 days.
